# scFv variants of Ab-95 (light chain) against a SARS-CoV-2 spike peptide

Source: Engelhart et al. 2022 (doi:10.1038/s41597-022-01779-4), MIT Lincoln Laboratory and A-Alpha Bio; data file from the FLAb repository.

All variants were tested on one target, the spike HR2 peptide PDVDLGDISGINAS (SARS-CoV-2).

Parent scFv Ab-95: VH joined to VL by a (GGGGS)3 linker. Changes lie in the light chain CDRs alone.
VH: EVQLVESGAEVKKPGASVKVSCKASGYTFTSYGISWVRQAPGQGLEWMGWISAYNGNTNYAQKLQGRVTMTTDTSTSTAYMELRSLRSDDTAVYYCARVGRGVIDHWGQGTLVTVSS
VL: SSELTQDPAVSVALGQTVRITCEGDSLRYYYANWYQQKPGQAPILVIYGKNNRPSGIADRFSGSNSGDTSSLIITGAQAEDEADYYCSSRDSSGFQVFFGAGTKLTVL

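Phage display of a naive human antibody library on the peptide gave the parent. In library AAYL52, one, two or three CDR residues were substituted; doubles and triples were drawn at random. In AlphaSeq, yeast of one mating type display the scFv and yeast of the other type display the target. Mating (16 h, 30 °C) was followed by selection of diploids and sequencing of their barcodes. Scores were corrected for input abundance and mapped to Kd with protein pairs of known affinity run in the same pool. Mating was done three times.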

Each variant is given by its three light chain CDRs, as the data file delimits them; those of the parent are EGDSLRYYYAN, GKNNRPS, SSRDSSGFQVF. Numbers give log10(Kd / nM), so 0 is 1 nM and 3 is 1 µM. Smaller is tighter. A mean of the replicates is given; it leaves out those without a signal. An entry "not detected" has no value in the source: the pair was not observed among the diploids in any replicate. This suggests poor binding but is not conclusive. As a blank, each scFv also met three strains without target: over library AAYL52, 28% of these pairings were detected, typically at 3.91 and seldom below 2.90. Parent in this assay: reference entry 2.31, copy in this library 2.25.

{"CDR-L1": "EGDSLRYYYVD", "CDR-L2": "GKNLRPS", "CDR-L3": "SSRDSSGFQVF", "mean log10 Kd (nM)": "4.49", "detected": "1 of 3"}
{"CDR-L1": "EMDSLRYYYAN", "CDR-L2": "GKKYRPS", "CDR-L3": "SSRDSSGFQVF", "mean log10 Kd (nM)": "4.25", "detected": "2 of 3"}
{"CDR-L1": "EGDSLRYYYAT", "CDR-L2": "GPNNRPS", "CDR-L3": "SSRDSSGFQKF", "mean log10 Kd (nM)": "2.19", "detected": "3 of 3"}
{"CDR-L1": "EGDSLRYYHAN", "CDR-L2": "GKNNRPS", "CDR-L3": "SSRDSSGFRVE", "mean log10 Kd (nM)": "1.81", "detected": "3 of 3"}
{"CDR-L1": "EGDSLRYQYAV", "CDR-L2": "GKNNRPS", "CDR-L3": "SVRDSSGFQVF", "mean log10 Kd (nM)": "2.48", "detected": "3 of 3"}
{"CDR-L1": "EGDSLWYYCAN", "CDR-L2": "AKNNRPS", "CDR-L3": "SSRDSSGFQVF", "mean log10 Kd (nM)": "3.87", "detected": "2 of 3"}
{"CDR-L1": "EGDSLRYYWAN", "CDR-L2": "GKNNRPS", "CDR-L3": "SGIDSSGFQVF", "mean log10 Kd (nM)": "2.71", "detected": "3 of 3"}
{"CDR-L1": "EADSLRYYYAN", "CDR-L2": "GKNNRPS", "CDR-L3": "SSRDTSGFKVF", "mean log10 Kd (nM)": "3.11", "detected": "3 of 3"}
{"CDR-L1": "GGDELRYYYAN", "CDR-L2": "GKNNRPS", "CDR-L3": "SSRDSSGWQVF", "mean log10 Kd (nM)": "4.05", "detected": "1 of 3"}
{"CDR-L1": "EGDSLRYYYAN", "CDR-L2": "GKNNRHS", "CDR-L3": "SSRDSSGFQVG", "mean log10 Kd (nM)": "2.52", "detected": "3 of 3"}
{"CDR-L1": "EGDSLRYYYAN", "CDR-L2": "GKPNRPS", "CDR-L3": "SQRDSWGFQVF", "mean log10 Kd (nM)": "3.95", "detected": "2 of 3"}
{"CDR-L1": "EGDLLRYHYAN", "CDR-L2": "GDNNRPS", "CDR-L3": "SSRDSSGFQVF", "mean log10 Kd (nM)": "1.63", "detected": "3 of 3"}
{"CDR-L1": "EGDSLFYYYAN", "CDR-L2": "GKNIRPS", "CDR-L3": "WSRDSSGFQVF", "mean log10 Kd (nM)": "2.24", "detected": "3 of 3"}
{"CDR-L1": "EGDSLRYYPAN", "CDR-L2": "GKNNRPS", "CDR-L3": "SSRDSMGFQVF", "mean log10 Kd (nM)": "1.82", "detected": "3 of 3"}
{"CDR-L1": "EGDNLRYYYAN", "CDR-L2": "DKNNRPS", "CDR-L3": "MSRDSSGFQVF", "mean log10 Kd (nM)": "2.33", "detected": "3 of 3"}
{"CDR-L1": "EGDSLRYYYAN", "CDR-L2": "GRNNRPS", "CDR-L3": "SSRDSSGFAVF", "mean log10 Kd (nM)": "2.84", "detected": "3 of 3"}
{"CDR-L1": "EGDSLRYYYAN", "CDR-L2": "GKNNRPI", "CDR-L3": "VSRYSSGFQVF", "mean log10 Kd (nM)": "2.56", "detected": "3 of 3"}
{"CDR-L1": "EIDSLRYYYAN", "CDR-L2": "PKNNRPS", "CDR-L3": "SSRDSKGFQVF", "mean log10 Kd (nM)": "not detected", "detected": "0 of 3"}
{"CDR-L1": "EGDSLRYYPAC", "CDR-L2": "GKNNRPS", "CDR-L3": "SSRDSSGHQVF", "mean log10 Kd (nM)": "3.09", "detected": "3 of 3"}

2 of these entries, quoted again:

{"CDR-L1": "EGDSLFYYYAN", "CDR-L2": "GKNIRPS", "CDR-L3": "WSRDSSGFQVF", "mean log10 Kd (nM)": "2.24", "detected": "3 of 3"}
{"CDR-L1": "EGDSLRYYYAT", "CDR-L2": "GPNNRPS", "CDR-L3": "SSRDSSGFQKF", "mean log10 Kd (nM)": "2.19", "detected": "3 of 3"}